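Each compound was tested at five concentrations against cells in 96-well plates for 48 hours. Abbreviation: GI50, concentration required for 50% inhibition of growth. TGI is the concentration that stops growth completely.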
System: MDA-MB-468 breast
Test: NCI anticancer screen, dose series, 48 h

O=[N+]([O-])c1cc([N+](=O)[O-])c(Nc2ccc(Cl)cc2)c([N+](=O)[O-])c1
GI50: 1.39 µM
TGI: 5.32 µM
